In ChEMBL document CHEMBL3259549, “Unraveling the structure-activity relationship of tomatidine, a steroid alkaloid with unique antibiotic properties against persistent forms of Staphylococcus aureus” (2014):

Test system: Staphylococcus aureus
Details: ATCC 29213

GENTAMICIN
MIC: 0.5 µg/mL
